From patent US12403160B2, “Injection composition containing isolated mitochondria, and use thereof” (Paean Biotechnology Inc., priority 2020, dated 2025)

Test system: human platelets
Conditions: 1 μg UC-hMSC mitochondria in 10 μL TTG, TTG-G or TTG-G-G buffer, refrigerated one hour, 37° C.
Protocol: After treatment, the resultant was incubated with shaking at 100 rpm at 37° C. for one hour.

| Compound | platelet aggregation induced by mitochondria in glycine or glycine oligomer buffer |
| --- | --- |
| NCC(=O)NCC(=O)O [glycine dimer] | no platelet aggregation was observed |
| NCC(=O)NCC(=O)NCC(=O)O [glycine trimer] | no platelet aggregation was observed |
